Literature values as cited in US4916151A, “Method of treating parkinson's syndrome” (Merrell Dow Pharmaceuticals Inc., priority 1989, dated 1990).

System: MAO
Conditions: literature; selectivity lost as dosage is increased

C#CCN(C)CCCOc1ccc(Cl)cc1Cl [clorgyline]
preferential inhibition of MAO-A or MAO-B: MAO-A is preferentially inhibited
